Reference: patent US20240360179A1, “STAPLED PEPTIDES AND METHODS THEREOF” (FOG PHARMACEUTICALS, INC., priority 2021, published 2024)

By UniProt entry, the sequences of proteins in these tests, tags left out.
UniProt P35222, whole entry: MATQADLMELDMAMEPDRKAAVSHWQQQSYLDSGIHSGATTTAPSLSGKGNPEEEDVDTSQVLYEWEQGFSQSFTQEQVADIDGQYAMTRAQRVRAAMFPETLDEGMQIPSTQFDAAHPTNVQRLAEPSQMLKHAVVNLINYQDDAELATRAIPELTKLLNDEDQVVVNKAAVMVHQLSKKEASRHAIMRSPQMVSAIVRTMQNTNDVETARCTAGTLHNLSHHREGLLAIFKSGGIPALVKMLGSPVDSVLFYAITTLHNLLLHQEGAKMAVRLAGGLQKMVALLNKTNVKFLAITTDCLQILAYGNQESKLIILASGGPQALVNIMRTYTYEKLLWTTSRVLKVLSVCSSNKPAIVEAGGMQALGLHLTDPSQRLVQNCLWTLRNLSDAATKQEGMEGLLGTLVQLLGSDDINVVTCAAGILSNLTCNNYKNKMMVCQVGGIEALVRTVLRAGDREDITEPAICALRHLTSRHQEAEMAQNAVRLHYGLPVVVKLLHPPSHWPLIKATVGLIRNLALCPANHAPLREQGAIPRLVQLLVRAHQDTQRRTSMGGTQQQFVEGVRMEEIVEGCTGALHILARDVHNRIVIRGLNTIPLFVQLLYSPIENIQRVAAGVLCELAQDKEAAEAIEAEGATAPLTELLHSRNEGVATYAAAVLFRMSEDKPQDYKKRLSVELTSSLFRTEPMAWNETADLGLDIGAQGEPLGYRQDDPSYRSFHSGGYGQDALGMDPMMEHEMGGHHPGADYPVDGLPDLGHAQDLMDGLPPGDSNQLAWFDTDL

Each substance was assayed against T1, full-length B-Catenin (Uniprot ID P35222) (Homo sapiens, UniProt P35222). Conditions: competition fluorescence polarization; read-out: beta-Catenin FP IC50.
T1 construct: 10 nM full-length B-Catenin (Uniprot ID P35222)
Format: binding
In the case of “Ac-PL3-Asp-Npg-B5-Asp-3COOHF-Aib-Ala-Phe-Lys*3-PyrS2-hCypA-BztA-GlnR*3-Ala-NH2 [I-1318]”, the IC50 is reported as < 50 nM.
In the case of “Ac-PL3-Asp-Npg-B5-Asp-3COOHF-Aib-Ala-Phe-Lys*3-PyrS2-hCypA-BztA-GlnR*3-Val-Glu-Ala-NH2 [I-1346]”, the IC50 is reported as < 50 nM.
“Ac-PL3-Asp-Npg-B5-Asp-3COOHF-Aib-Ala-Phe-Lys*3-PyrS2-hPhe-34ClF-GlnR*3-Ala-NH2 [I-1308]” was tested, and the IC50 was < 50 nM.
Work on “Ac-PL3-Asp-Npg-B5-Asp-3COOHF-Aib-Ala-Phe-Lys*3-PyrS2-hPhe-BztA-GlnR*3-Ala-NH2 [I-1305]” yielded an IC50 of 50 to 200 nM.
“Ac-PL3-Asp-Npg-B5-Asp-3COOHF-Aib-Ala-Phe-Lys*3-PyrS2-hhLeu-34ClF-GlnR*3-Ala-NH2 [I-1307]” was tested, and the IC50 was < 50 nM.
With “Ac-PL3-Asp-Npg-B5-Asp-3COOHF-Aib-Ala-Phe-Lys*3-PyrS2-hhLeu-BztA-GlnR*3-Ala-NH2 [I-1304]” the IC50 was < 50 nM.
In the case of “Ac-PL3-Asp-Npg-B5-Asp-3COOHF-Aib-Ala-Phe-Lys*3-PyrS2-hhSer-34ClF-GlnR*3-Ala-NH2 [I-1309]”, the IC50 is reported as < 50 nM.
In the case of “Ac-PL3-Asp-Npg-B5-Asp-3COOHF-Aib-Ala-Phe-Lys*3-PyrS2-hhSer-BztA-GlnR*3-Ala-NH2 [I-1306]”, the IC50 is reported as < 50 nM.
In the case of “Ac-PL3-Asp-Npg-B5-Asp-3COOHF-Aib-Ala-Phe-Lys*3-PyrS2-hnLeu-2NapA-GlnR*3-Ala-NH2 [I-767]”, the IC50 is reported as < 50 nM.
With “Ac-PL3-Asp-Npg-B5-Asp-3COOHF-Aib-Ala-Phe-Lys*3-PyrS2-hnLeu-3BrF-GlnR*3-Ala-NH2 [I-765]” the IC50 was 50 to 200 nM.
For “Ac-PL3-Asp-Npg-B5-Asp-3COOHF-Aib-Ala-Phe-Lys*3-PyrS2-hnLeu-34ClF-GlnR*3-Ala-NH2 [I-761]”, the IC50 was < 50 nM.
For “Ac-PL3-Asp-Npg-B5-Asp-3COOHF-Aib-Ala-Phe-Lys*3-PyrS2-hnLeu-34ClF-GlnR*3-Leu-Ser-NH2 [I-956]”, the IC50 was < 50 nM.
With “Ac-PL3-Asp-Npg-B5-Asp-3COOHF-Aib-Ala-Phe-Lys*3-PyrS2-hnLeu-34MeF-GlnR*3-Ala-NH2 [I-763]” the IC50 was < 50 nM.
With “Ac-PL3-Asp-Npg-B5-Asp-3COOHF-Aib-Ala-Phe-Lys*3-PyrS2-hnLeu-RbMe2NapA-GlnR*3-Ala-NH2 [I-769]” the IC50 was < 50 nM.
Work on “Ac-PL3-Asp-Npg-B5-Asp-3COOHF-Aib-Ala-Phe-Lys*3-PyrS2-hnLeu-SbMeBzta-GlnR*3-Ala-NH2 [I-773]” yielded an IC50 of 50 to 200 nM.
“Ac-PL3-Asp-Npg-B5-Asp-3COOHF-Aib-Ala-Phe-Lys+3-PyrS2-[2IAPAc]2NH2F-BztA-GlnR*3-Ala-NH2 [I-1667]” was tested, and the IC50 was 50 to 200 nM.
In the case of “Ac-PL3-Asp-Npg-B5-Asp-3COOHF-Aib-Ala-Phe-Lys+3-PyrS2-[3PyAc]2NH2F-BztA-GlnR*3-Ala-NH2 [I-1670]”, the IC50 is reported as < 50 nM.
For “Ac-PL3-Asp-Npg-B5-Asp-3COOHF-Aib-Ala-Phe-TriAzLys*3-PyrS2-3Thi-34ClF-sAla*3-Ala-NH2 [I-1088]”, the IC50 was < 50 nM.
For “Ac-PL3-Asp-Npg-B5-Asp-3COOHF-Aib-Ala-Phe-TriAzLys*3-PyrS2-3Thi-34ClF-sAla*3-NH2 [I-1086]”, the IC50 was < 50 nM.
In the case of “Ac-PL3-Asp-Npg-B5-Asp-3COOHF-Aib-Ala-Phe-TriAzLys*3-PyrS2-Phe-34ClF-sAla*3-Ala-NH2 [I-1093]”, the IC50 is reported as < 50 nM.
“Ac-PL3-Asp-Npg-B5-Asp-3COOHF-Aib-Ala-Phe-TriAzLys*3-PyrS2-Phe-34ClF-sAla*3-NH2 [I-1092]” was tested, and the IC50 was < 50 nM.
In the case of “Ac-PL3-Asp-Npg-B5-Asp-3COOHF-Aib-Ala-Phe-TriAzLys*3-PyrSc7-3Thi-BztA-sAla*3-Ala-NH2 [I-1125]”, the IC50 is reported as < 50 nM.
For “Ac-PL3-Asp-Npg-B5-Asp-3COOHF-Aib-Ala-Phe-TriAzLys*3-PyrSc72RMe3SOMe-3Thi-BztA-sAla*3-Ala-NH2 [I-1121]”, the IC50 was < 50 nM.
With “Ac-PL3-Asp-Npg-B5-Asp-3COOHF-Aib-Ala-Phe-TriAzLys*3-PyrSc72SMe3ROMe-3Thi-BztA-sAla*3-Ala-NH2 [I-1120]” the IC50 was < 50 nM.
“Ac-PL3-Asp-Npg-B5-Asp-3COOHF-Aib-Ala-Phe-TriAzLys*3-PyrSc73Me2-3Thi-BztA-sAla*3-Ala-NH2 [I-1124]” was tested, and the IC50 was < 50 nM.
